Values quoted from earlier work, collected in PMC4508061, “Selectivity Profiling and Biological Activity of Novel β-Carbolines as Potent and Selective DYRK1 Kinase Inhibitors” (PLoS ONE, 2015).

Sequences of proteins named here, by UniProt entry; tags and fusion partners are left off.
UniProt P49760, whole entry: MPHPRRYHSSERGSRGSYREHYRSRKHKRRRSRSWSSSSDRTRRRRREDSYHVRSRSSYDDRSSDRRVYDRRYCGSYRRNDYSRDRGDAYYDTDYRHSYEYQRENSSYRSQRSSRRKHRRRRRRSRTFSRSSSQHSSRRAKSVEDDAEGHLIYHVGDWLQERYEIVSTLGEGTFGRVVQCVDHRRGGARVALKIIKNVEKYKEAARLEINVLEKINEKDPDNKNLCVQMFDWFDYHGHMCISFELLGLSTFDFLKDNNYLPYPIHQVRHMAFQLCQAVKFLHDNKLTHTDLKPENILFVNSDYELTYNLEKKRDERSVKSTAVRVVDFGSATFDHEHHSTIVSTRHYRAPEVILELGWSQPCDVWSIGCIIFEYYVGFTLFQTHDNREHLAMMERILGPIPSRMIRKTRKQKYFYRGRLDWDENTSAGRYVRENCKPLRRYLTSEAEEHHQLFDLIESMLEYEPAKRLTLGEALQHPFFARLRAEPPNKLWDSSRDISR

Biological target: T1, CLK2 (Homo sapiens, UniProt P49760)
T1 construct: purchased ProQinase (Freiburg, Germany)
Conditions: 10 μM; cited from earlier work

O=C1NC(Nc2ccccc2)=N/C1=C\c1ccc2c(c1)OCO2 [L41]
Residual activity (% of control): 6 % of control
